## Binding of CDR-mutated scFvs to a peptide of the spike HR2 region

Binding partner: SARS-CoV-2 spike HR2 peptide, sequence PDVDLGDISGINAS.

Parent: Ab-91, a human scFv built as VL, three GGGGS repeats, VH. Only the CDRs of the heavy chain vary.
VL: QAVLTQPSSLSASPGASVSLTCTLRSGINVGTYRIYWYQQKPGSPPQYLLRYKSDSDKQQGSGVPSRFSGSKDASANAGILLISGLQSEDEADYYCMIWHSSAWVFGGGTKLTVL
VH: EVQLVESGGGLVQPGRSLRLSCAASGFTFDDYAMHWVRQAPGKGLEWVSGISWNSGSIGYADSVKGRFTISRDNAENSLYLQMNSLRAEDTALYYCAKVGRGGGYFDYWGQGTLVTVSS

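Phage display of a naive human antibody library on the peptide gave the parent. AAYL51 was designed without a model: most single CDR substitutions and a random sample of double and triple ones. In AlphaSeq, yeast of one mating type display the scFv and yeast of the other type display the target. Pairs that bind mate more often; barcode pairs of the diploids are counted by sequencing. Each replicate has its own calibration line, from reference interactions of the BCL2 family. The assay was run in three technical replicates.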

Changes read parent residue, position, new residue, counted from the first residue of the VH shown.
All variants listed here change A61 of the VH, counted from its first residue.
Numbers give log10(Kd / nM), so 0 is 1 nM and 3 is 1 µM. Smaller is tighter.
A mean of the replicates is given; it leaves out those without a signal.
"no signal" marks a missing value. The strain was present, yet no cells mated with the target were sequenced in any replicate, which points to weak or no binding.
Three control strains display no target. For library AAYL51, 21% of the pairings with them gave a signal, with a median of 4.54 and one signal in twenty below 3.26, so weak values seen in few replicates may be background. Also given: how often the same scFv was detected with the empty control strains.

For G56E A61M V64I, the assay gave 1.32 (3 of 3 replicates; controls 1 of 9).
For Y32C S57E A61Y, the assay gave 4.05 (3 of 3 replicates; controls 0 of 9).
For A61Q G104I Y105F, the assay gave no signal (0 of 3 replicates; controls 0 of 9).
For N54W I58D A61H, the assay gave 3.45 (1 of 3 replicates; controls 1 of 9).
For H35K A61T K65R, the assay gave 4.73 (2 of 3 replicates; controls 7 of 9).
For N54H A61D V64A, the assay gave no signal (0 of 3 replicates; controls 1 of 9).
For A61N R101M, the assay gave 3.09 (2 of 3 replicates; controls 0 of 9).
For G50L G59I A61I, the assay gave 3.94 (1 of 3 replicates; controls 1 of 9).
For F27M A61M, the assay gave no signal (0 of 3 replicates; controls 2 of 9).
For A61P G104H, the assay gave 5.77 (2 of 3 replicates; controls 4 of 9).
For D31W Y60A A61W, the assay gave 5.12 (2 of 3 replicates; controls 3 of 9).
For S57D A61H, the assay gave 0.71 (3 of 3 replicates; controls 2 of 9).
For I51V A61S V64E, the assay gave no signal (0 of 3 replicates; controls 0 of 9).
For D30I A61Y Y105N, the assay gave 4.39 (3 of 3 replicates; controls 1 of 9).
For D31W A61Q G104V, the assay gave no signal (0 of 3 replicates; controls 0 of 9).
For M34G Y60I A61V, the assay gave no signal (0 of 3 replicates; controls 2 of 9).
For A61M K65N V99P, the assay gave no signal (0 of 3 replicates; controls 1 of 9).
For D30W A61I G103H, the assay gave 5.27 (1 of 3 replicates; controls 1 of 9).
For H35G G56L A61D, the assay gave 3.92 (1 of 3 replicates; controls 2 of 9).
For W53V A61H Y105R, the assay gave 5.38 (2 of 3 replicates; controls 4 of 9).
For A33Y I51T A61I, the assay gave 4.82 (2 of 3 replicates; controls 2 of 9).
For M34F Y60F A61S, the assay gave 4.08 (2 of 3 replicates; controls 0 of 9).
For S52F Y60L A61N, the assay gave 3.60 (2 of 3 replicates; controls 1 of 9).
For D31G G50C A61N, the assay gave no signal (0 of 3 replicates; controls 0 of 9).
For N54D G59P A61V, the assay gave 5.29 (3 of 3 replicates; controls 6 of 9).
For D31W A33R A61F, the assay gave 5.62 (2 of 3 replicates; controls 1 of 9).
For F29C A61L D107H, the assay gave no signal (0 of 3 replicates; controls 3 of 9).
For F27Q Y60P A61L, the assay gave 4.19 (1 of 3 replicates; controls 3 of 9).
For T28D A61P, the assay gave no signal (0 of 3 replicates; controls 0 of 9).
For D30C G59W A61C, the assay gave no signal (0 of 3 replicates; controls 0 of 9).
For A61G D107Q, the assay gave 4.70 (1 of 3 replicates; controls 5 of 9).
For S55E I58E A61D, the assay gave 4.63 (2 of 3 replicates; controls 5 of 9).
For Y32R W53Y A61V, the assay gave 4.80 (3 of 3 replicates; controls 3 of 9).
For W53R A61I K65E, the assay gave 4.90 (3 of 3 replicates; controls 8 of 9).
For D31Y A61K S63N, the assay gave no signal (0 of 3 replicates; controls 1 of 9).
For A61G G100V, the assay gave 1.23 (3 of 3 replicates; controls 1 of 9).
For F27K W53D A61W, the assay gave 4.66 (2 of 3 replicates; controls 4 of 9).
For G56E A61R G100S, the assay gave no signal (0 of 3 replicates; controls 0 of 9).
For A33T G59K A61E, the assay gave 5.63 (1 of 3 replicates; controls 0 of 9).
For S55Q A61D K65Y, the assay gave 4.19 (2 of 3 replicates; controls 0 of 9).
For A61I, the assay gave no signal (0 of 3 replicates; controls 1 of 9).
For A61W K65F G103W, the assay gave no signal (0 of 3 replicates; controls 1 of 9).
For Y60R A61G V64P, the assay gave 4.60 (1 of 3 replicates; controls 0 of 9).
For F27Q S57V A61F, the assay gave 5.70 (3 of 3 replicates; controls 5 of 9).
For I58P Y60E A61H, the assay gave no signal (0 of 3 replicates; controls 3 of 9).
For N54M G59F A61S, the assay gave no signal (0 of 3 replicates; controls 4 of 9).

For reference, 7 entries of the list once more:

changes	log10 Kd (nM), mean	replicates with signal	control signals
A61M K65N V99P	no signal	0/3	1/9
N54H A61D V64A	no signal	0/3	1/9
M34G Y60I A61V	no signal	0/3	2/9
A33T G59K A61E	5.63	1/3	0/9
D31W A33R A61F	5.62	2/3	1/9
A61G D107Q	4.70	1/3	5/9
H35K A61T K65R	4.73	2/3	7/9

The measurements come from Engelhart et al. 2022 (doi:10.1038/s41597-022-01779-4) through the FLAb antibody collection.